Literature values, collected in patent US20090209474A1, “NOVEL USES FOR DRUGS TARGETING GLUTAMINE SYNTHETASE” (NEWTHERA, priority 2005, published 2009).

System: a number of animal species
Conditions: in vivo; cited from earlier work

SMILES: CS(=N)(=O)CC[C@H](N)C(=O)O (stereo partly shown) [MS, 2-amino-4-(S-methylsulfonimidosyl)butanoic acid]
- doses producing neurological disorders, in particular seizures: ≥ 2 mg/kg body weight
